Assay results: patent US20060035889A1, “Treatment for methamphetamine addiction and reduction of methamphetamine use using serotonin antagonists” (priority 2004, published 2006)

Test system: METH-sensitized rats
Assay: Reversal of METH-induced behavioral sensitization by 5-HT2A/2C antagonists (motor activity after acute METH challenge)
Conditions: rat, in vivo
Description: Automation of observational evaluations was accomplished using computerized small animal monitors (AccuScan Instr. Inc., Columbus, Ohio). […] One feature of drug-induced behavioral sensitization is heterogeneity of motor responses and the AccuScan monitors quantify numerous behavioral indices. This is a critical point for the motor profile is exquisitely related to METH dose, the drug history of the rat and observation time. After 3- or 31-days of withdrawal from repeated METH injections, rats were allowed to achieve baseline motor activity with a 30 min habituation period, challenged with 1 mg/kg sc METH and monitored for 90 min. As shown in FIGS. 1a-b, a “sensitized” motor response was clearly expressed in the METH-pretreatment group to the METH challenge at the 3-day withdrawal period for both Horizontal Activity and Stereotypy Counts (data not shown) and with slight early effects on Vertical Movements.
Multiple 5-HT2A/2C antagonists with differing pharmacological profiles were tested for their ability to ameliorate METH-induced behavioral sensitization when administered after sensitization has developed. […]. The doses were selected based on the antagonists' ability to block 5-HT2A- and 5-HT2C-mediated activity and their pharmacokinetic profiles. […]

With `CN1CCN2c3ccccc3Cc3ccccc3C2C1` (stereo not shown) [mianserin] the “METH response on horizontal activity” value was “Some attenuation”.
